Protein sequences, listed by entry. Tags and fused reporters are not part of them.
ATP-dependent Clp protease proteolytic subunit (Bacillus subtilis (strain 168)), P80244, UniProt P80244, whole entry, looked up: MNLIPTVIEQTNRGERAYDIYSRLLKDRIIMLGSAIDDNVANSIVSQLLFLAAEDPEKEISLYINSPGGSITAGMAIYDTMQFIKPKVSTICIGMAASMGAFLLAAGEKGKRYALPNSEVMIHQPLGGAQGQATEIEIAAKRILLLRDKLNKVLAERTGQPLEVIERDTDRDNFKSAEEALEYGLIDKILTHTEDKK

# Compound activity: PubChem, National Center for Advancing Translational Sciences (NCATS)
# miR-21 reporter – raises the signal of a miR-21 reporter | Potency, µM (doses to about 38.3 µM), for inactives: top-dose reporter change, positive = more light | HeLa miR-21 FLuc reporter, luciferase, 48 h | AID 2288 | 340,000 tested, under 10 active; active = well fitted rising curve with a large enough effect; inconclusive = small, poorly fitted or top-dose-only effect; inactive = no such curve, though single readings can be large or run the other way;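 also: % of control where 0% means no effect; miR-21 action dims this reporter so a rising signal means less miR-21 action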
#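 Luminescence from a firefly luciferase reporter carrying a miR-21 binding site downstream, stably expressed under a CMV promoter in HeLa cells that make miR-21 endogenously, reports miRNA modulation after 48 h compound exposure up to approximately 40uM final.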
# Nrf2 inh – blocks Nrf2 signaling; Potency, µM (titrated, usually from 46 µM), for the others: top-dose activity change, negative = inhibition, usual class: inhibitors; 360,000 compounds, 2.1% hits; A549 ARE-Fluc reporter, luciferase luminescence, 18-24 h; further: potency means the concentration at half of the fitted maximal effect; on the % scale 0 is the no-effect control and ±100 the full control effect; nearly all actives have a fitted effect of over 60% in size
#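 Nrf2 activity is the BugLite luminescence, read 15 min after reagent at room temperature, following CellTiter-Fluor cytotoxicity readout (30 min, 37C). Compound titrations were applied for 18-24 h to 5000 A549 ARE_Fluc cells/well in 5% FBS OPTI-MEM.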
# A549 viability – counter-screen for Nrf2 inhibitors: cytotoxicity in A549 cells; AID 504648; A549 ARE-Fluc cells, CellTiter-Fluor viability, 18-24 h; Potency, µM (highest dose often 46 µM), for inactives: at the highest dose activity change, negative = cytotoxicity, most hits filed as inhibitors; 390,000 compounds, 0.16% hits; further: potency means the concentration at half of the fitted maximal effect; on the % scale 0 is the no-effect control and ±100 the full control effect
#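 Cytotoxicity counterscreen: CellTiter-Fluor fluorescence was measured in A549 ARE_Fluc cells after 18-24 h of compound exposure in a concentration series. The subsequent BugLite luminescent read reports ARE-luciferase activity.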
# TCR activator – activates T cell receptor signaling; primary human leukocytes, anti-CD3, IL-2 HTRF, 48 h; Potency, µM (series often up to 9.22 µM), without a hit: at the highest dose activation of IL-2 secretion, hits mostly activators; 330,000 tested, under 10 active; further: % of control where 0% means no effect
#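 TCR engagement came from a-CD3 beads alone, with compounds added to primary human leukocytes for 48 hr. Secreted IL-2 bridged europium cryptate- and d2-labelled anti-IL-2 antibodies, giving FRET emission at 665nm after 320nm excitation.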
# Nrf2 activator – activates Nrf2 signaling | AREc32 ARE-luciferase reporter (MCF7-derived line), luminescence, 24 h | Potency, µM (top dose mostly 46.1 µM), inactives show at the highest dose activation, most hits filed as activators | 410,000 compounds, 0.31% hits | AID 624171; further: potency means the concentration at half of the fitted maximal effect; % of control where 0% means no effect; nearly all actives have a fitted effect of over 65% in size
#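 Cells of the AREc32 ARE-luciferase line are plated in OPTI-MEM containing 5% FBS and left overnight at 37 deg C. Compounds are pinned in, incubation continues 24 hr, and firefly luciferase signal is then measured.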
# ClpP mod – qHTS Assay for Activators of ClpP | ATP-dependent Clp protease proteolytic subunit (Bacillus subtilis (strain 168)), P80244 | purified B. subtilis ClpP, FRET peptide cleavage, 20 min | Potency, µM (top dose mostly 57.5 µM), without a hit: at the top dose activity change, negative = active | 340,000 compounds, 1.9% hits; active means well fitted falling curve with a large enough effect; inconclusive means small, poorly fitted or top-dose-only effect; inactive means no such curve, though single readings can be large or run the other way; further: potency means the concentration at half of the fitted maximal effect; the source files actives as falling curves though it sought activators and does not explain the sign; nearly all actives have a fitted effect of over 65% in size
#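 FRET quenching reversal measured ClpP activation: 10 microg/mL B. subtilis ClpP at pH 8 with the FRET-FV decapeptide, read at 430 nm after 320 nm excitation. The 20-min minus 0-min signal was scaled between DMSO/no-enzyme wells and ADEP (5.8 microM final).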
# Active calls of the source: *; ? = inconclusive; / = no result given; ! = not confirmed by another sample; [ ] = another dose, or the depositor's remark. Shown are actives, neighbours in structure and some others; about 3.7% of the full set was active somewhere. Unless noted, the call rests on the fitted dose curve; in most records, active means well fitted curve in the direction sought with a large enough effect; inconclusive means small, poorly fitted or top-dose-only effect, or another doubt; inactive means no such curve, though single readings can be large; an effect the other way counts as inactive or inconclusive.
# Letters – A = miR-21 reporter; B = Nrf2 inh; C = A549 viability; D = TCR activator; E = Nrf2 activator; F = ClpP mod
1. CC(C)(C)c1ccc(-c2noc(CCC(=O)NCC3CCCO3)n2)cc1 (configuration not stated)
  A: ? | B: 0.58µM* | C: -4% | D: 2% | E: -2% | F: -1%

2. COC(=O)c1ccccc1NC(=O)Cc1nc(-c2ccc(OC)cc2)no1
  A: -1% | B: 24% | C: 7% | D: / | E: 4% | F: 28µM*

3. Cc1nn(CC(=O)N2CCC(C)CC2)c(=O)c2cc3sccc3n12
  A: -11% | B: 10% | C: 1% | D: / | E: 0% | F: -20%

4. O=C(CCN1C(=O)C2C3C=CC(C3)C2C1=O)N1CCN(c2cccc(Cl)c2)CC1 (configuration not stated)
  A: 0% | B: ? | C: -5% | D: -11% | E: 0% | F: -1%

5. O=C(CCN1C(=O)C2C3C=CC(C3)C2C1=O)NCc1cccnc1 (configuration not stated)
  A: -5% | B: / | C: -6% | D: 0% | E: -1% | F: 13µM*

6. O=C(CCN1C(=O)C2C3C=CC(C3)C2C1=O)N1CCN(c2ccccn2)CC1 (configuration not stated)
  A: -9% | B: 1% | C: -1% | D: 2%[46.1 µM] | E: 2% | F: 16µM*

7. Cc1cc(C)cc(NC(=O)C2CCN(S(=O)(=O)c3ccc4[nH]c(=O)ccc4c3)CC2)c1
  A: 7% | B: -19% | C: -8% | D: 2% | E: 0% | F: -8%

8. COc1ccc(C)cc1NC(=O)C(Sc1nnc2ccccn12)c1ccccc1 (configuration not stated)
  A: -8% | B: -5% | C: 5% | D: 0%[46.1 µM] | E: 4% | F: -15%

9. COc1ccc(C)cc1NC(=O)C(Sc1nnc(-c2ccncc2)n1-c1ccc(Cl)cc1)c1ccccc1 (configuration not stated)
  A: ? | B: 26µM* | C: -1% | D: -14%[46.1 µM] | E: 4% | F: /

10. Cc1cccn2c(=O)c(C(=O)N3CCN(c4ccccc4F)CC3)cnc12
  A: -36% | B: / | C: 16% | D: / | E: 1% | F: -5%

11. CC(C)(C)NC(=O)NC(=O)CN1CCN(c2ccc(O)cc2)CC1
  A: 18% | B: 21µM* | C: -21% | D: 7% | E: 0% | F: /

12. Cc1ccc(NC(=O)NC(=O)CN2CCN(c3ccc(O)cc3)CC2)c(C)c1
  A: 4% | B: 23µM* | C: -14% | D: 2% | E: 0% | F: /

13. Cc1ccc(NC(=O)NC(=O)CN2CCC(C(N)=O)CC2)c(C)c1
  A: / | B: ? | C: 5% | D: -4% | E: 3% | F: -2%

14. O=C(NCCCN1CCN(c2cccc(Cl)c2)CC1)c1ccc2nc(Cc3ccccc3)oc2c1
  A: ? | B: / | C: ? | D: / | E: 0% | F: -5%

15. COc1ccc(C=C2SC(=S)NC2=O)c(OC)c1OC
  A: / | B: ? | C: 15µM* | D: 5% | E: 22% | F: -13%

16. COc1ccccc1C=C1SC(=S)NC1=O
  A: / | B: -2% | C: -17% | D: -4% | E: 0% | F: -3%

17. COc1ccc(/C=N/Nc2nnc(-c3ccccc3)c(=O)[nH]2)cc1
  A: -9% | B: ? | C: -5% | D: 2% | E: 0% | F: 25µM*

18. O=c1[nH]c(N/N=C/c2ccccc2Br)nnc1-c1ccccc1
  A: -5% | B: ? | C: -3% | D: -1%[46.1 µM] | E: 2%[9.22 µM] | F: 1%

19. CCN(C(=O)COC(=O)c1cccnc1Nc1cccc(C(F)(F)F)c1)C1CCS(=O)(=O)C1 (configuration not stated)
  A: -26% | B: 5% | C: 2% | D: -3%[46.1 µM] | E: 11µM* | F: -2%

20. CCN(C(=O)COC(=O)c1cccnc1SC)C1CCS(=O)(=O)C1 (configuration not stated)
  A: -10% | B: 2% | C: -6% | D: 2% | E: 0% | F: 1%

21. COc1ccc(C2Nc3ccccc3C(=O)N2Cc2ccccc2OC)cc1COc1ccc(NC(C)=O)cc1 (configuration not stated)
  A: / | B: -26% | C: -5% | D: / | E: / | F: /

22. CC(C)(C)N(Cc1ccccc1)C(=O)COC(=O)C1CCN(c2ccc(C(F)(F)F)cn2)CC1
  A: / | B: ? | C: -13% | D: 7% | E: 1% | F: ?

23. COc1cc(N=c2ssnc2Cl)c(OC)cc1Cl
  A: 10% | B: 23µM*! | C: ? | D: 3% | E: 8% | F: 1%

24. O=c1[nH]c(=O)n(-c2ccccc2)c2c1C(C(F)(F)F)(C(F)(F)F)N=C(CCC1CCCCC1)N2
  A: -4% | B: 18µM* | C: ? | D: -2%[46.1 µM] | E: 0% | F: -4%

25. O=c1[nH]c(=O)n(Cc2ccco2)c2c1C(C(F)(F)F)(C(F)(F)F)N=C(CCC1CCCCC1)N2
  A: -16% | B: -4% | C: -6% | D: 3% | E: 0% | F: 1%

26. Cc1ccc(C2=NC(C(F)(F)F)(C(F)(F)F)c3c(n(-c4ccc(F)cc4)c(=O)[nH]c3=O)N2)cc1
  A: 29% | B: 21µM* | C: -13% | D: 4%[46.1 µM] | E: 0% | F: 1%

27. COc1ccc(-n2c3c(c(=O)[nH]c2=O)C(C(F)(F)F)(C(F)(F)F)N=C(CC(C)C)N3)cc1
  A: -14% | B: ? | C: 1% | D: 1% | E: 3% | F: -3%

28. O=c1[nH]c(=O)n(-c2ccc(F)cc2)c2c1C(C(F)(F)F)(C(F)(F)F)N=C(c1ccc(F)cc1)N2
  A: 10% | B: 16µM* | C: ? | D: 0%[46.1 µM] | E: 4% | F: -2%

29. O=C(O)CCc1ccc(-c2cccs2)n1CC1CCCO1 (configuration not stated)
  A: -5% | B: 3% | C: -7% | D: 1% | E: 0% | F: 25µM*

30. O=C(O)CCc1ccc(-c2ccc(F)cc2)n1CC1CCCO1 (configuration not stated)
  A: -3% | B: / | C: -11% | D: 2% | E: -1% | F: 22µM*

# Entries listed so far containing a tert-butyl group, in the order listed:
# Letters – A = miR-21 reporter; B = Nrf2 inh; C = A549 viability; D = TCR activator; E = Nrf2 activator; F = ClpP mod
1. CC(C)(C)c1ccc(-c2noc(CCC(=O)NCC3CCCO3)n2)cc1 (configuration not stated)
  A: ? | B: 0.58µM* | C: -4% | D: 2% | E: -2% | F: -1%

11. CC(C)(C)NC(=O)NC(=O)CN1CCN(c2ccc(O)cc2)CC1
  A: 18% | B: 21µM* | C: -21% | D: 7% | E: 0% | F: /

22. CC(C)(C)N(Cc1ccccc1)C(=O)COC(=O)C1CCN(c2ccc(C(F)(F)F)cn2)CC1
  A: / | B: ? | C: -13% | D: 7% | E: 1% | F: ?

# The results go on:
# Letters – A = miR-21 reporter; B = Nrf2 inh; C = A549 viability; D = TCR activator; E = Nrf2 activator; F = ClpP mod
31. COc1ccc(-c2ccc(CCC(=O)O)n2CC2CCCO2)cc1 (configuration not stated)
  A: 10% | B: -10% | C: -5% | D: -1% | E: 0% | F: /

32. CCCn1c(CCC(=O)O)ccc1-c1cccs1
  A: -3% | B: -21% | C: -6% | D: 9% | E: 0% | F: 25µM*

33. COCCCn1c(CCC(=O)O)ccc1-c1cccs1
  A: -2% | B: -6% | C: 1% | D: -2% | E: 0% | F: ?

34. COc1ccc(C(=O)C(CCC(CNC(C)(C)C)C(=O)c2ccc(OC)cc2)CNC(C)(C)C)cc1 (configuration not stated)
  A: ? | B: ? | C: ? | D: -1% | E: ? | F: 28µM*

35. COc1ccc(C(=O)CC(=O)c2ccc(C(C)(C)C)cc2)cc1
  A: / | B: 3% | C: -13% | D: -15% | E: 0% | F: -20%

36. FC(F)(F)c1cc(-c2cccs2)nc2ncnn12
  A: -9% | B: ? | C: -11% | D: -1% | E: 0% | F: /

37. FC(F)(F)c1cc(-c2ccccc2)nc2ncnn12
  A: -13% | B: -26% | C: 2% | D: 2%[46.1 µM] | E: 2% | F: 28µM*

38. O=C(c1nc2nc(-c3ccccc3)cc(C(F)(F)F)n2n1)N1CCCCC1
  A: -3% | B: / | C: 4% | D: -2% | E: 0% | F: 28µM*

39. FC(F)(F)c1cc(-c2ccco2)nc2ncnn12
  A: -22% | B: -22% | C: 4% | D: 0%[46.1 µM] | E: 0% | F: 28µM*

40. CCOC(=O)NC1(C(F)(F)F)NC(=O)N(c2ccc(C)c(C)c2)C1=O (configuration not stated)
  A: -10% | B: -1% | C: -4% | D: / | E: 2% | F: -2%
